Measured values from publication PMC10953480 (RSC Medicinal Chemistry, 2024).

Each compound was assayed on Cos-7 cells.
For `CN(C)CCCOc1ccc(S(=O)(=O)Nc2ccccc2Oc2ccc(C(F)(F)F)cc2)cc1` [compound 44, 4-(3-(Dimethylamino)propoxy)-N-(2-(4-(trifluoromethyl)phenoxy)phenyl)benzenesulfonamide], the “concentration up to which well tolerated by Cos-7 cells” value (“concentration up” for short) was ≤ 100 µM.
With `CN(C)CCCOc1ccc(S(=O)(=O)Nc2ccccc2Oc2ccc(C#N)cc2)cc1` [compound 45, N-(2-(4-Cyanophenoxy)phenyl)-4-(3-(dimethylamino)propoxy)benzenesulfonamide] the “concentration up” value was ≤ 100 µM.
With `CN(C)CCCOc1ccc(S(=O)(=O)Nc2ccccc2Oc2ccccc2)cc1` [compound 42, 4-(3-(Dimethylamino)propoxy)-N-(2-phenoxyphenyl)benzenesulfonamide] the “concentration up” value was ≤ 100 µM.
